# Measured values as given in PubChem BioAssay AID697 (Columbia University Molecular Screening Center, 2007).
# Chains of the proteins cited; added tags and fusions are not shown.
# UniProt Q9Y2R2, whole entry: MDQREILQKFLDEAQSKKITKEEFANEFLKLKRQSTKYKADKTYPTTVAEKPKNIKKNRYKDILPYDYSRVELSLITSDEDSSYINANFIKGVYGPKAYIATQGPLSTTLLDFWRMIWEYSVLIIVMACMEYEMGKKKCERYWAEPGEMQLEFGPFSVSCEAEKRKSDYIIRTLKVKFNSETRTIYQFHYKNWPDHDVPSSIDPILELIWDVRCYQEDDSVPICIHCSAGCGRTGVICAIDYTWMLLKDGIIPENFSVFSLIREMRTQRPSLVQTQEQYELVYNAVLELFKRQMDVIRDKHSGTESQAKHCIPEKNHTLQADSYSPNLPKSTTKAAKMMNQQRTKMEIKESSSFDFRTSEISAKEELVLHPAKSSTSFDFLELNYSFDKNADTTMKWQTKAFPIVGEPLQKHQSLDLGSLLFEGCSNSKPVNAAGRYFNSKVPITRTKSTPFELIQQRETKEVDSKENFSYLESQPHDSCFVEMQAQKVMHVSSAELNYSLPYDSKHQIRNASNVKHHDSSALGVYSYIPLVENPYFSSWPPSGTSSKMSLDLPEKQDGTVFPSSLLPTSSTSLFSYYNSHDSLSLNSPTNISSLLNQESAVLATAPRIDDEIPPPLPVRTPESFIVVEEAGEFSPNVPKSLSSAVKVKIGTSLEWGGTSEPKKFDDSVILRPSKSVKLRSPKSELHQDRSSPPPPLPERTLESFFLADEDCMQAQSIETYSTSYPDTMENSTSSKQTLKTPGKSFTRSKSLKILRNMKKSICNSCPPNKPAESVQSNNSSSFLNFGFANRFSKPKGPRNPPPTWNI
# The entries are a selection whose mix differs from that of the whole data set. Calls of active or inactive are those of the source.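 The calls were made as follows: active = activation at 2 µM above a set limit, the mean plus 5 SD (cut at about 37% in these data); inactive = the rest.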
# Target: Tyrosine-protein phosphatase non-receptor type 22 (Homo sapiens) (UniProt Q9Y2R2)
# Assay: LYP phosphatase activators, primary screen, biochemical, DiFMUP fluorescence, 2 µM (AID 697)
# Conditions: recombinant LYP, at 2 µM, hits give high values, 0 = plate median, 100 = signal doubled
row,Compound,activation
1,COc1ccccc1OP(C)(=O)Nc1c(C)cccc1C (stereo not given),inactive: 17.3%
2,Cc1nc2ccc3ccccc3c2s1.O=[N+]([O-])c1cc([N+](=O)[O-])c(O)c([N+](=O)[O-])c1,inactive: -4.7%
3,Cc1ccc(C)c(NP(C)(=O)Oc2ccccc2)c1 (stereo not given),inactive: -13.3%
4,Cc1cc(C)cc(OP(C)(=O)Nc2ccccn2)c1 (stereo not given),inactive: 0.1%
5,Cc1cc(C)cc(OP(C)(=O)Nc2ccc(C)cc2C)c1 (stereo not given),inactive: 6%
6,COc1ccc(OP(C)(=O)Nc2cccc(F)c2)cc1 (stereo not given),inactive: -2%
7,CP(=O)(Nc1ccccn1)Oc1ccc(Cl)cc1 (stereo not given),inactive: -2.7%
8,CP(=O)(NC(=O)Nc1ccccc1)Oc1ccccc1 (stereo not given),inactive: 7.1%
9,CP(=S)(Nn1cnnc1)Oc1ccccc1 (stereo not given),inactive: -5.8%
10,CP(=O)(OC12CC3CC(CC(C3)C1)C2)OC12CC3CC(CC(C3)C1)C2,inactive: 9.6%
11,CC(C)(C)c1ccc(OP(C)(=O)O)cc1,inactive: -2.1%
12,CP(=O)(Nc1ccc(Cl)cc1)Oc1ccc(F)cc1 (stereo not given),inactive: 2.6%
13,COc1ccccc1OP(C)(=O)Nc1c(C)n(C)n(-c2ccccc2)c1=O (stereo not given),inactive: 5.4%
14,CP(=O)(Oc1ccccc1)N1CCOC1=O (stereo not given),inactive: -10.9%
15,CCN(CC)CC(O)COC(=O)C(O)(c1ccccc1)C1CCCCC1 (stereo not given),inactive: -4.2%
16,CP(=O)(Nc1ccccn1)Oc1ccccc1 (stereo not given),inactive: 4.3%
17,COc1ccccc1OP(C)(=O)Nc1ccc(C)cc1C (stereo not given),inactive: 2.7%
18,CCc1ccc(OP(C)(=O)O)cc1,inactive: -0.6%
19,Cc1c(NP(C)(=O)Oc2ccc(C(C)C)cc2)c(=O)n(-c2ccccc2)n1C (stereo not given),inactive: -3.6%
20,COc1ccc(OP(C)(=O)Nc2ccccn2)cc1 (stereo not given),inactive: -1%
21,CN(C)CCOC(=O)C(O)(c1ccccc1)C1CCCC1 (stereo not given),inactive: 13.6%
22,Cc1nc2ccc3ccccc3c2o1.O=[N+]([O-])c1cc([N+](=O)[O-])c(O)c([N+](=O)[O-])c1,inactive: 6.2%
23,COc1ccccc1OP(C)(=O)Nc1ccc(C)c(C)c1 (stereo not given),inactive: -2.9%
24,CP(=O)(Nc1ccccc1)Oc1ccc(F)cc1 (stereo not given),inactive: -5.4%
25,CCN(CC)CCCOC(=O)C(O)(c1ccccc1)C1CCCCC1 (stereo not given),inactive: -3.3%
26,CP(=O)(Nc1ccccc1F)Oc1ccccc1 (stereo not given),inactive: 0.2%
27,CP(=O)(Nc1ccc2c(c1)OCCO2)Oc1ccccc1 (stereo not given),inactive: 12.3%
28,CCOP(C)(=S)SCC(=O)NC(C)(CC)C(=O)O (stereo not given),inactive: 3.8%
29,CN(C)CCOC(=O)C(O)(c1ccccc1)C1CCCCC1 (stereo not given),inactive: 0.4%
30,COc1ccc(OP(C)(=O)Nc2cccc(Br)c2)cc1 (stereo not given),inactive: -5.3%
